Laboratory results from ChEMBL document CHEMBL4680116, “Development of benzimidazole-based derivatives as antimicrobial agents and their synergistic effect with colistin against gram-negative bacteria” (Eur J Med Chem, 2020).

System: Escherichia coli
Conditions: JW55031, time 18-20 hrs

Sequence: GENTAMICIN
- MIC: 0.5 µg/mL
